# Measurements from published antibiotic growth screens (doi:10.1038/s41589-023-01349-8).
# Some of the results follow.
# System: A. baumannii ATCC 17978
# Test: relative growth (fraction of control); higher = less inhibition
# Conditions: 50 µM
row,SMILES,relative growth
1,O=C(C[C@H]1CC[C@@H](NS(=O)(=O)c2ccc(F)cc2)[C@@H](CO)O1)NCc1ccc(Cl)c(Cl)c1,0.9
2,COc1cc(C/C=C/c2ccccc2)c(OC)cc1O,0.939
3,C[C@H](O)C#Cc1ccc2c(c1)O[C@H](CN(C)C(=O)Cc1ccccn1)[C@@H](C)CN([C@@H](C)CO)S2(=O)=O,1.11
4,O=C(C[C@@H]1CC[C@@H]2[C@H](COC[C@@H](O)CN2S(=O)(=O)c2ccc(Cl)cc2)O1)NCCN1CCCC1,0.962
5,C=C1C(=O)O[C@@H]2[C@H]3O[C@]3(C)CC/C=C(\C)CC[C@@H]12,0.873
6,COc1ccc(S(=O)(=O)N(C)C[C@H]2Oc3cc(C#CC4CC4)ccc3S(=O)(=O)N([C@@H](C)CO)C[C@H]2C)cc1,1.09
7,O=C(O)CCCN1C(=O)c2cccc3cccc(c23)C1=O,1.06
8,CCn1c2c(ccc1=O)C[C@H](N)CC2,0.958
9,COc1ccccc1C#Cc1ccc2c(c1)O[C@H](CN(C)Cc1cncnc1)[C@H](C)CN([C@H](C)CO)S2(=O)=O,0.869
10,O=S(=O)(Cc1ccccc1)Nn1cnnc1,0.898
11,O=C(O)C1CSCN1 (stereo unspecified),0.914
12,Clc1ccc(C2=Nc3cccc4cccc(c34)N2)cc1,1.07
13,NCCC[C@H](N)CC(=O)NC1CNC(=O)[C@H]([C@H]2C[C@H](O)NC(N)=N2)NC(=O)/C(=C/NC(N)=O)NC(=O)[C@H](CO)NC(=O)[C@H](CO)NC1=O.O=S(=O)(O)O (stereo partly specified),0.88
14,C=C1[N-]O[N+](O)=C1CN(Cc1c(C)no[n+]1[O-])OC(C)=O,0.9
15,Cc1ccc(-c2noc([C@H](C)c3ccc(CC(C)C)cc3)n2)cc1,0.964
16,N#C/C(=C\c1cccs1)c1csc2ccc(Cl)cc12,1.02
17,Nc1nc(-c2ccccc2)cc[n+]1[O-],1.12
18,CNC(=O)c1cc(S(=O)(=O)N(C)C[C@@H]2Oc3ccc(NC(=O)Nc4ccc(C#N)cc4)cc3CC(=O)N([C@@H](C)CO)C[C@@H]2C)cs1,1.01
19,CC[C@H](C)C(=O)O[C@H]1CCC=C2C=C[C@H](C)C(CCC3C[C@@H](O)CC(=O)O3)[C@H]21 (stereo partly specified),1.02
20,CC(=O)NCCCC[C@@H]1NC(=O)[C@H]2C[C@@H](C(=O)NCCCCCN)[C@@H](c3cccc(OCCO)c3)N2C1=O,1.13
21,COc1ccc(/C=C/C(=O)O[C@@H]2[C@@H](O)[C@H](C)O[C@@H](O[C@H]3[C@@H]4C=CO[C@@H](O[C@H]5O[C@@H](CO)[C@H](O)[C@@H](O)[C@@H]5O)[C@@H]4[C@@]4(CO)O[C@@H]34)[C@@H]2OC(C)=O)cc1,1.18
22,Cc1cc(NS(=O)(=O)c2ccc(N)cc2)nc(C)n1,1.47
23,COCC(=O)N(C)C[C@H]1Oc2cc(C#CC(C)(C)O)ccc2S(=O)(=O)N([C@H](C)CO)C[C@@H]1C,1.08
24,COC(=O)c1c2oc(c1C(=O)OC)C(=O)N[C@@H](Cc1ccccc1)Cn1cc(nn1)CNC(=O)[C@H](Cc1ccccc1)NC(=O)N[C@@H](CO)CC2,1.07
25,CCCCCCCCCCCCCCCCOP(=O)([O-])OCC[N+](C)(C)C,0.891
26,Cc1ccc2sc(C(=O)O)cc2c1,1.05

row,SMILES,relative growth
1,COc1cccc(S(=O)(=O)N2C[C@@H](O)COC[C@@H]3O[C@@H](CC(=O)N4CCN(C)CC4)CC[C@H]32)c1,0.998
2,COc1cc(C(C)=O)ccc1O,0.911
3,O=C(N[C@H]1CC[C@@H](CC(=O)N2CCOCC2)O[C@@H]1CO)c1ccc2c(c1)OCO2,0.864
4,COCCOC(=O)N1C(=O)[C@@]2(c3cc(C#CCC(C(=O)OC)C(=O)OC)ccc31)[C@H](C(=O)Nc1nc3ccccc3s1)[C@H]1C(=O)O[C@H](c3ccccc3)[C@H](c3ccccc3)N1[C@@H]2c1ccccc1OCCO,1.07
5,N=C(CN1CCCCC1)NO,1.11
6,O=C(N1CCOCC1)[C@]1(CCS(=O)(=O)c2ccccc2)N=C(c2ccc(OCCCO)cc2)O[C@@H]1c1ccccc1,0.684
7,Cc1ccc(NC(=N)N=C(N)N)c(C)c1,0.834
8,N#CCNC(=O)CN1C(=O)c2ccccc2C1=O,0.942
9,C[C@]1(C(=O)NCc2ccccc2)c2ccccc2C(=O)N(Cc2ccccc2)[C@H]1c1ccc(COC(=O)NCCCCCC(=O)NO)cc1,0.807
10,C[C@@H]1CN([C@@H](C)CO)S(=O)(=O)c2ccc(C#Cc3ccccc3)cc2O[C@H]1CN(C)S(=O)(=O)c1ccccc1F,1.06
11,C[N+]1(C)CCC(OC(=O)C(O)(c2ccccc2)C2CCCC2)C1.[Br-] (stereo unspecified),0.835
12,O=C(O)C[C@@H](C(=O)O)[C@H](O)c1ccccc1,1.07
13,O=C(C[C@H]1C[C@@H]2c3cc(NC(=O)NC4CCCC4)ccc3O[C@@H]2[C@H](CO)O1)NCc1ccc2c(c1)OCO2,0.948
14,O=C(C[C@H]1C=C[C@@H](NC(=O)Nc2cc(F)ccc2F)[C@@H](CO)O1)NCCCN1CCOCC1,0.997
15,C[C@H]1CN([C@@H](C)CO)S(=O)(=O)c2ccc(C#CCN(C)C)cc2O[C@@H]1CN(C)S(=O)(=O)c1cccc(F)c1,1.05
16,O=c1c(O)cc([C@H]2Oc3cc(O)cc(O)c3C[C@H]2O)cc2c([C@H]3Oc4cc(O)cc(O)c4C[C@H]3O)cc(O)c(O)c12,0.87
17,COc1ccc(NC(=O)N[C@@H]2CC[C@@H](CCNC(=O)CN3CCOCC3)O[C@@H]2CO)cc1,1.01
18,CO[C@H]1CN(C)C(=O)c2cc(NS(=O)(=O)c3ccccc3C)ccc2OC[C@@H](C)N(S(C)(=O)=O)C[C@@H]1C,1.15
19,NCC[C@@H]1CC[C@@H](NC(=O)Nc2ccc(F)cc2)[C@@H](CO)O1,0.982
20,CCN(CC)CCNc1ccc(CO)c2sc3ccccc3c(=O)c12,0.946
21,CC(C)(C)OC(=O)CC[C@]12N=C(c3ccc(OCCCO)cc3)O[C@H]1c1ccccc1CN(C(=O)c1ccccc1)C2=O,1.08
22,CC(C)(C)CC(C)(C)c1ccc(O)c(Cc2ccc(Cl)cc2Cl)c1,1.62
23,O=C(O)CCc1n[nH]c(=S)[nH]c1=O,0.994
24,CN1CCN(c2c(F)cc3c(=O)c(C(=O)O)cn4c3c2OCN4C)CC1,0.145
25,CCN1CCN(C(=O)NC(C(=O)N[C@@H]2C(=O)N3[C@@H]2SC(C)(C)[C@@H]3C(=O)[O-])c2ccccc2)C(=O)C1=O.[Na+] (stereo partly specified),0.149
